Literature values, collected in patent publication US20190248834A1, “ENDOMORPHIN-2, TETRAPEPTIDE DERIVATIVES THEREOF, AND USES THEREOF” (priority 2016, published 2019).

Sequences of proteins named here, by UniProt entry; tags and fusion partners are left off.
UniProt P32300, whole entry: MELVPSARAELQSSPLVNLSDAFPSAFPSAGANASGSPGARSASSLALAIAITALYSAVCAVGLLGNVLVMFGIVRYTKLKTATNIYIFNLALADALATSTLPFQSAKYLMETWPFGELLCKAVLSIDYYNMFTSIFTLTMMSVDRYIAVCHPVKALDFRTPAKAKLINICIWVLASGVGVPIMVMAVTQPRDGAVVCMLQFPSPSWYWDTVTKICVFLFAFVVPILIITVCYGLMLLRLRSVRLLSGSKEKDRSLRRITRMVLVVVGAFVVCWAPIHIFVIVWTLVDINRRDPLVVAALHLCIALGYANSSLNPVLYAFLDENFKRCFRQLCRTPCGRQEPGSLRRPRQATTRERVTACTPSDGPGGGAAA

Biological target: delta receptors (Mus musculus, UniProt P32300)
Details: mouse brain; cited from earlier work

Substance | affinity for delta receptors
Tyr-Pro-Phe-Phe-NH2 | did not have any affinity
Tyr-Pro-Trp-Phe-NH2 [reference compound] | did not have any affinity
